Results published in patent publication US10040781B2, “Tank-binding kinase inhibitor compounds” (Gilead Sciences, Inc., priority 2014, dated 2018).

Sequences of proteins named here, by UniProt entry; tags and fusion partners are left off. A change or cut given only in a name is not applied to a line headed by its entry.
UniProt Q9UHD2: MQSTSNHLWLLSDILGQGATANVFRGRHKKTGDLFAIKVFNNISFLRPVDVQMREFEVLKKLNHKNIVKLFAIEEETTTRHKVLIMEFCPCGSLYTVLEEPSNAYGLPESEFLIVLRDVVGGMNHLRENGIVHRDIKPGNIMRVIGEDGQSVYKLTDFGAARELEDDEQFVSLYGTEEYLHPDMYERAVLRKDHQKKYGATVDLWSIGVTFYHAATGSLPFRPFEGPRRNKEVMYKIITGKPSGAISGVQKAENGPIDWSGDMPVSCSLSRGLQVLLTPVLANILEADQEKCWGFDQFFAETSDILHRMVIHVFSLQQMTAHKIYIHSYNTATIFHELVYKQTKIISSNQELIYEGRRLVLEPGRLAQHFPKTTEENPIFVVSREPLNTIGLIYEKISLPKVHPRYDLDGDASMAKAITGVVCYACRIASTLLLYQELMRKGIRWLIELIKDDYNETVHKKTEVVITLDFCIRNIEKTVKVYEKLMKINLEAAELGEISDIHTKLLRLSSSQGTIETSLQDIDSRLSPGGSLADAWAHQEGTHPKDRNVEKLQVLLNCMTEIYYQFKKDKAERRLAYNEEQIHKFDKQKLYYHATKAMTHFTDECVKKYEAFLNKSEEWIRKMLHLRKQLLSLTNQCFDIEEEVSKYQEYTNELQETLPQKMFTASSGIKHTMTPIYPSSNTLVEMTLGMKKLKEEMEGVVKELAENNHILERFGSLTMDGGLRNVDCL
UniProt Q14164: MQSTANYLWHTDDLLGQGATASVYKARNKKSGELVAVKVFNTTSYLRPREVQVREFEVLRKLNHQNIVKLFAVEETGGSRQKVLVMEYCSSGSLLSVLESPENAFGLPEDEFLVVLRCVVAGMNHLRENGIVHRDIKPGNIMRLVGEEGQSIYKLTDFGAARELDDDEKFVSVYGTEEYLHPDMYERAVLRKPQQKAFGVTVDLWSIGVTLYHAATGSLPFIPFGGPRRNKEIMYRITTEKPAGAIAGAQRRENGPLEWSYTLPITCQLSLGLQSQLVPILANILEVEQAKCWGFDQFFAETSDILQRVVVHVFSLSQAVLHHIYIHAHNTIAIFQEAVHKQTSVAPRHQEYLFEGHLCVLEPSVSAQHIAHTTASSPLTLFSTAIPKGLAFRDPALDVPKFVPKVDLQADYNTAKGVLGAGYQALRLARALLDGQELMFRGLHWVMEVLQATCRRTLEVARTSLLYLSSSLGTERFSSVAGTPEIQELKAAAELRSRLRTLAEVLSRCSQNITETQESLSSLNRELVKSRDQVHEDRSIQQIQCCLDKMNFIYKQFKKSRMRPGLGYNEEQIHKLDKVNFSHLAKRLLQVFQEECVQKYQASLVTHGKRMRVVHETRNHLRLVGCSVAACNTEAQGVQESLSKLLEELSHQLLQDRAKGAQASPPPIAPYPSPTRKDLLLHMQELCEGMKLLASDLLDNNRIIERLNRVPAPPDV

biological target: TBK1 (Homo sapiens (Human), UniProt Q9UHD2); assay: TBK1 TR-FRET enzymatic assay; conditions: not given;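 also: phosphorylation of a biotinylated Ser/Thr peptide by purified full-length recombinant TBK1, read by TR-FRET after 240 min at 25 °C, IC50 is the geometric mean of at least four runs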

| SMILES | IC50 |
| --- | --- |
| N#Cc1cc(-c2ncnc(Nc3ccc(N4CCN(C5COC5)CC4)cc3)n2)ccc1O[C@H]1CCN(C(=O)c2cnccn2)C[C@H]1F [Example 336, 2-(((3R,4S)-3-fluoro-1-(pyrazine-2-carbonyl)piperidin-4-yl)oxy)-5-(4-((4-(4-(oxetan-3-yl)piperazin-1-yl)phenyl)amino)-1,3,5-triazin-2-yl)benzonitrile] | 2 nM |
| N#Cc1cc(-c2ncnc(Nc3cnn(C(F)F)c3)n2)ccc1O[C@H]1CCN(C(=O)CO)C[C@H]1F [Example 454, 5-(4-((1-(difluoromethyl)-1H-pyrazol-4-yl)amino)-1,3,5-triazin-2-yl)-2-(((3R,4S)-3-fluoro-1-(2-hydroxyacetyl)piperidin-4-yl)oxy)benzonitrile] | 5 nM |
| CN1CCN(c2ccc(Nc3ncnc(-c4ccc(OC5CCOCC5)c(C#N)c4)n3)cc2)CC1 [Example 12, 5-(4-((4-(4-methylpiperazin-1-yl)phenyl)amino)-1,3,5-triazin-2-yl)-2-((tetrahydro-2H-pyran-4-yl)oxy)benzonitrile] | 1 nM |
| N#Cc1cc(-c2ncnc(Nc3ccc(N4CCN(C5COC5)CC4)cc3)n2)ccc1O[C@H]1CCN(C(=O)c2cc(Cl)n[nH]2)C[C@H]1F [Example 324, 2-(((3R,4S)-1-(3-chloro-1H-pyrazole-5-carbonyl)-3-fluoropiperidin-4-yl)oxy)-5-(4-((4-(4-(oxetan-3-yl)piperazin-1-yl)phenyl)amino)-1,3,5-triazin-2-yl)benzonitrile] | 4 nM |
| COc1cc(Nc2ncnc(-c3ccc(O[C@H]4CCN(C(=O)[C@@H](O)CO)C[C@H]4F)c(C#N)c3)n2)ccc1N1CCN(C2COC2)CC1 [Example 578, 2-(((3R,4S)-1-((S)-2,3-dihydroxypropanoyl)-3-fluoropiperidin-4-yl)oxy)-5-(4-((3-methoxy-4-(4-(oxetan-3-yl)piperazin-1-yl)phenyl)amino)-1,3,5-triazin-2-yl)benzonitrile] | 2 nM |
| Cc1cc(Nc2ncnc(-c3ccc(O[C@H]4CCN(C(=O)[C@@H](O)CO)C[C@H]4F)c(C#N)c3)n2)ccc1N1CCN(C2COC2)CC1 [Example 575, 2-(((3R,4S)-1-((S)-2,3-dihydroxypropanoyl)-3-fluoropiperidin-4-yl)oxy)-5-(4-((3-methyl-4-(4-(oxetan-3-yl)piperazin-1-yl)phenyl)amino)-1,3,5-triazin-2-yl)benzonitrile] | 2 nM |
| COc1cc(Nc2ncnc(-c3ccc(O[C@H]4CCN(C(=O)[C@H](O)CO)C[C@H]4F)c(C#N)c3)n2)ccc1N1CCN(C2COC2)CC1 [Example 579, 2-(((3R,4S)-1-((R)-2,3-dihydroxypropanoyl)-3-fluoropiperidin-4-yl)oxy)-5-(4-((3-methoxy-4-(4-(oxetan-3-yl)piperazin-1-yl)phenyl)amino)-1,3,5-triazin-2-yl)benzonitrile] | 2 nM |

biological target: IKKε (Homo sapiens (Human), UniProt Q14164); assay: IKKε TR-FRET enzymatic assay; format: biochemical; conditions: TR-FRET, 2×Km ATP; geometric mean of minimum four determinations; read-out: IKKe IC50

| SMILES | IC50 |
| --- | --- |
| Cc1n[nH]c(C(=O)N2CC[C@H](Oc3ccc(-c4ncnc(Nc5ccc(N6CCN(C7COC7)CC6)cc5)n4)cc3C#N)[C@H](F)C2)n1 [Example 451, 2-(((3R,4S)-3-fluoro-1-(3-methyl-1H-1,2,4-triazole-5-carbonyl)piperidin-4-yl)oxy)-5-(4-((4-(4-(oxetan-3-yl)piperazin-1-yl)phenyl)amino)-1,3,5-triazin-2-yl)benzonitrile] | 1 nM |
| C[C@H](O)C(=O)N1CC[C@H](Oc2ccc(-c3ncnc(Nc4ccc(O[C@H]5CCN(C6COC6)C[C@H]5F)cc4)n3)cc2C#N)[C@H](F)C1 [Example 401, 2-(((3R,4S)-3-fluoro-1-((S)-2-hydroxypropanoyl)piperidin-4-yl)oxy)-5-(4-((4-(((3R,4S)-3-fluoro-1-(oxetan-3-yl)piperidin-4-yl)oxy)phenyl)amino)-1,3,5-triazin-2-yl)benzonitrile] | 3 nM |
| COc1cc(Nc2ncnc(-c3ccc(O[C@H]4CCN(C(=O)[C@H](C)O)C[C@H]4F)c(C#N)c3)n2)cnc1N1CCN(C2COC2)CC1 [Example 514, 2-(((3R,4S)-3-fluoro-1-((S)-2-hydroxypropanoyl)piperidin-4-yl)oxy)-5-(4-((5-methoxy-6-(4-(oxetan-3-yl)piperazin-1-yl)pyridin-3-yl)amino)-1,3,5-triazin-2-yl)benzonitrile] | 3 nM |
| N#Cc1cc(-c2ncnc(Nc3ccc(N4CCN(C5COC5)CC4)cc3)n2)ccc1O[C@H]1CCN(C(=O)[C@@H]2C[C@H](O)C(=O)N2)C[C@H]1F [Example 410, 2-(((3R,4S)-3-fluoro-1-((2S,4S)-4-hydroxy-5-oxopyrrolidine-2-carbonyl)piperidin-4-yl)oxy)-5-(4-((4-(4-(oxetan-3-yl)piperazin-1-yl)phenyl)amino)-1,3,5-triazin-2-yl)benzonitrile] | 2 nM |
| N#Cc1cc(-c2ncnc(Nc3ccc(N4CCN(C5COC5)CC4)cc3)n2)ccc1O[C@H]1CCN(C(=O)[C@@H]2C[C@H](F)C(=O)N2)C[C@H]1F [Example 406, 2-(((3R,4S)-3-fluoro-1-((2S,4S)-4-fluoro-5-oxopyrrolidine-2-carbonyl)piperidin-4-yl)oxy)-5-(4-((4-(4-(oxetan-3-yl)piperazin-1-yl)phenyl)amino)-1,3,5-triazin-2-yl)benzonitrile] | 3 nM |
| N#Cc1cc(-c2ncnc(Nc3ccc(N4CCN(C5COC5)CC4)cc3)n2)ccc1O[C@H]1CCN(C(=O)[C@@H]2CSC(=O)N2)C[C@H]1F [Example 530, 2-(((3R,4S)-3-fluoro-1-((R)-2-oxothiazolidine-4-carbonyl)piperidin-4-yl)oxy)-5-(4-((4-(4-(oxetan-3-yl)piperazin-1-yl)phenyl)amino)-1,3,5-triazin-2-yl)benzonitrile] | 2 nM |
| CC(=O)N1CC[C@H](Oc2ccc(-c3ncnc(Nc4ccc(S(C)(=N)=O)cc4)n3)cc2C#N)C(F)(F)C1 (some centres unmarked) [Example 481] | 5 nM |
| COc1cc(Nc2ncnc(-c3ccc(O[C@H]4CCN(C(=O)CC#N)C[C@H]4F)c(C#N)c3)n2)ccc1N1CCN(C2COC2)CC1 [Example 558, 2-(((3R,4S)-1-(2-cyanoacetyl)-3-fluoropiperidin-4-yl)oxy)-5-(4-((3-methoxy-4-(4-(oxetan-3-yl)piperazin-1-yl)phenyl)amino)-1,3,5-triazin-2-yl)benzonitrile] | 2 nM |

same assay, conditions: read-out: IKKe IC50

| SMILES | IC50 |
| --- | --- |
| N#Cc1cc(-c2ncnc(Nc3ccc4c(c3)OC(F)(F)O4)n2)ccc1OC1CCOCC1 [Example 275, 5-(4-((2,2-difluorobenzo[d][1,3]dioxol-5-yl)amino)-1,3,5-triazin-2-yl)-2-((tetrahydro-2H-pyran-4-yl)oxy)benzonitrile] | ≥ 1000 nM |
| C[C@H](O)C(=O)N1CC[C@H](Oc2ccc(-c3ncnc(Nc4ccc(N5CC6CCC(C5)O6)cc4)n3)cc2C#N)[C@H](F)C1 [Example 362, 5-(4-((4-(8-oxa-3-azabicyclo[3.2.1]octan-3-yl)phenyl)amino)-1,3,5-triazin-2-yl)-2-(((3R,4S)-3-fluoro-1-((S)-2-hydroxypropanoyl)piperidin-4-yl)oxy)benzonitrile] | 2 nM |
| N#Cc1cc(-c2ncnc(Nc3ccc(N4CCN(C5COC5)CC4)cc3)n2)ccc1O[C@@H]1CCN(C(=O)CO)CC1(F)F (single isomer, unassigned) [Example 153] | 1 nM |
| N#Cc1cc(-c2ncnc(Nc3ccc(N4CCN(C5COC5)CC4)cc3)n2)ccc1O[C@@H]1CCN(C(=O)CO)C1 [Example 30, (R)-2-((1-(2-hydroxyacetyl)pyrrolidin-3-yl)oxy)-5-(4-((4-(4-(oxetan-3-yl)piperazin-1-yl)phenyl)amino)-1,3,5-triazin-2-yl)benzonitrile] | 14 nM |
| N#Cc1cc(-c2ncnc(Nc3ccc(N4CCN(C5COC5)CC4)cc3)n2)ccc1OC1CCN(C(=O)CO)CC1(F)F (racemic) [Example 151, 2-((3,3-difluoro-1-(2-hydroxyacetyl)piperidin-4-yl)oxy)-5-(4-((4-(4-(oxetan-3-yl)piperazin-1-yl)phenyl)amino)-1,3,5-triazin-2-yl)benzonitrile] | 1 nM |
| CC1(C)CN(C(=O)CO)CCC1Oc1ccc(-c2ncnc(Nc3ccc(N4CCN(C5COC5)CC4)cc3)n2)cc1C#N (racemic) [Example 174, 2-((1-(2-hydroxyacetyl)-3,3-dimethylpiperidin-4-yl)oxy)-5-(4-((4-(4-(oxetan-3-yl)piperazin-1-yl)phenyl)amino)-1,3,5-triazin-2-yl)benzonitrile] | 4 nM |
| COc1cc(Nc2ncnc(-c3ccc(OC4CCOCC4)c(C#N)c3)n2)ccc1N1CCN(C)CC1 [Example 4, 5-(4-((3-methoxy-4-(4-methylpiperazin-1-yl)phenyl)amino)-1,3,5-triazin-2-yl)-2-((tetrahydro-2H-pyran-4-yl)oxy)benzonitrile] | 1 nM |
| C[C@H](O)C(=O)N1CC[C@H](Oc2ccc(-c3ncnc(Nc4ccc(N5CCN(C6COC6)CC5)c(Cl)c4)n3)cc2C#N)[C@H](F)C1 [Example 378, 5-(4-((3-chloro-4-(4-(oxetan-3-yl)piperazin-1-yl)phenyl)amino)-1,3,5-triazin-2-yl)-2-(((3R,4S)-3-fluoro-1-((S)-2-hydroxypropanoyl)piperidin-4-yl)oxy)benzonitrile] | 2 nM |
| CC1(C)CN(C(=O)CO)CC[C@H]1Oc1ccc(-c2ncnc(Nc3ccc(N4CCN(C5COC5)CC4)cc3)n2)cc1C#N (single isomer, unassigned) [Example 176] | 3 nM |
| N#Cc1cc(-c2ncnc(Nc3ccc(N4CCN(C5COC5)CC4)cc3)n2)ccc1OCCc1c[nH]c2ccccc12 [Example 610, 2-(2-(1H-indol-3-yl)ethoxy)-5-(4-((4-(4-(oxetan-3-yl)piperazin-1-yl)phenyl)amino)-1,3,5-triazin-2-yl)benzonitrile] | ≥ 1000 nM |
| C[C@H](O)C(=O)N1CC[C@H](Oc2ccc(-c3ncnc(Nc4ccc(N5CCN6CCOC[C@H]6C5)cc4)n3)cc2C#N)[C@H](F)C1 [Example 619, 2-(((3R,4S)-3-fluoro-1-((S)-2-hydroxypropanoyl)piperidin-4-yl)oxy)-5-(4-((4-((R)-hexahydropyrazino[2,1-c][1,4]oxazin-8(1H)-yl)phenyl)amino)-1,3,5-triazin-2-yl)benzonitrile] | 3 nM |
